Where a name gives a salt, the structure may show the parent alone.

A short description of data set [1]: Published plasma concentrations and fetal-to-maternal ratios in (pregnant) women. As to conditions: matches Ca x F/M ratio of published values. The class given is in vivo, human.
The conditions of data set [2]: pregnant women or women, cited from earlier work; for Cmax: read-out: Cmax (maximum steady-state plasma concentration).
Data set [3] relates to placental efflux transporters. Nature of the data set: Dually perfused rat term placenta, closed-circuit setup: fetal/maternal concentration ratio. The settings on record: GF 120918 2 µM (P-gp and BCRP inhibitor), drug 1 µM.

On to `CNCCC(Oc1ccc(C(F)(F)F)cc1)c1ccccc1` (stereo not drawn) [Fluoxetine, fluoxetine hydrochloride], for which the “Ca;fetal (average fetal plasma concentration)” value in data set [1] worked out at 368 nM. In data set [2], the “Ca (average maternal plasma concentration)” value was 557 nM and the Cmax was 1900 nM.

Consider `CN[C@H]1CC[C@@H](c2ccc(Cl)c(Cl)c2)c2ccccc21` [Sertraline, sertraline hydrochloride], for which, in data set [2], the “Ca (average maternal plasma concentration)” value was 104 nM and the Cmax is 1300 nM. Moreover, the “Effect of GF 120918 on reduction of drug concentration in fetal circulation (efflux)” value in data set [3] was “not inhibited”.

The values above are taken from publication PMC8397948, “Effect of Selected Antidepressants on Placental Homeostasis of Serotonin: Maternal and Fetal Perspectives” (Pharmaceutics, 2021).
